Laboratory results as given in publication PMC12348509, “Classical Paal-Knorr Cyclization for Synthesis of Pyrrole-Based Aryl Hydrazones and In Vitro/In Vivo Evaluation on Pharmacological Models of Parkinson’s Disease” (Molecules, 2025).

Test system: rat brain mitochondria
Experiment: t-BuOOH-induced oxidative stress in isolated rat brain mitochondria
Details: vs untreated mitochondria

## CC(C)(C)OO
  decrease of GSH level in mitochondria by the toxic agent alone: 50%
  increase of MDA production in mitochondria by the toxic agent alone: 150%
